Dyrk1A ADPGlo: rat Dyrk1A kinase inhibitors, primary screen, biochemical, single point, plate reader | Dual specificity tyrosine-phosphorylation-regulated kinase 1A (Rattus norvegicus), Q63470 | ADP-Glo luminescence, NFATc1 peptide | inhibition, % at 12.5 µM | 310,000 compounds, 0.43% hits; in the data active means inhibition above about 50%;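 further: plate controls were vehicle with enzyme for no effect and no enzyme for full effect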
CDK5 inh: inhibitors of human CDK5/p35 kinase, primary screen, biochemical, single concentration. Cyclin-dependent kinase 5 (Homo sapiens) + Cyclin-dependent kinase 5 activator 1 (Homo …. Recombinant CDK5/p35, ADP-Glo luminescence, 60 min. inhibition, % at 10 µM. 330,000 compounds, 0.01% hits. AID 488839, 2010;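 active means highest replicate inhibition of at least 50% and at least 75% of replicates reaching 50%; inconclusive means only one of the two criteria met; inactive means both criteria failed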;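 further: plate controls were DMSO neutral control for no effect and GW8510 at 10 µM for full effect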
CAL PDZ FP-1: untagged CAL PDZ binding inhibitors, primary screen, biochemical, fluorescence polarization, HTS; AID 602252, 2012; 300,000 compounds, 0.92% hits; inhibition, % at 24.9 µM; Golgi-associated PDZ and coiled-coil motif-containing protein (Homo sapiens), Q9HD26; purified CAL PDZ, TMR-peptide fluorescence polarization, 1 h;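 active means mean inhibition of at least 30% with at least half of replicates also reaching 30%; inconclusive means no clear call, values can overlap the other calls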;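 further: 0% = DMSO neutral control and 100% = excess unlabeled competitor peptide PRC23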
CAL PDZ FP-2: CAL PDZ peptide-binding inhibitors, primary screen, biochemical, fluorescence polarization, Cer-tagged CAL PDZ, HTS. purified CAL PDZ, TMR-peptide fluorescence polarization, 1 h. 330,000 compounds, 0.02% hits. inhibition, % at 20 µM. Golgi-associated PDZ and coiled-coil motif-containing protein (Homo sapiens), Q9HD26. AID 504414, 2011;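 active means highest replicate inhibition of at least 40%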;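 further: plate controls were DMSO neutral control wells for no effect and unlabeled competitor peptide control wells for full effect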
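Control set: unlabelled peptide and DMSO controls / Material: purified CerCALP PDZ construct / Timing: 1 h incubation at room temperature before polarization reading / Doses: 20 µM, one dose / Detection: fluorescence polarization (mP)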
UUG fidelity: modulators of yeast start codon fidelity, primary screen, whole organism, S. cerevisiae, single point, plate reader; S. cerevisiae UUG-firefly luciferase reporter, luminescence/redox ratio; activity score, % at 18.7 µM; actives 0.13% (n = 350,000); AID 602363, 2012;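 active = replicate mean at a twofold rise or more, about +100% in these data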;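 also: firefly luciferase made from a UUG start codon reports start codon fidelity; reporter light over untreated wells divided by growth signal over untreated wells; some hits fall short of that in this replicate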
dFosB act-1: activators of delta FosB homodimer, primary screen, biochemical, fluorescence polarization, TAMRA-CDK5 oligo, single point; Protein FosB (Mus musculus), P13346; purified delta FosB; percent of positive-control signal above neutral wells; activation, % at 25 µM; 340,000 compounds, 0.99% hits;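 active means mean activation above about 17%, with every replicate also reaching it, limit read from the data, passing the limit was not always enough; inconclusive means only one of the two conditions met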
dFosB act-2: activators of mouse delta FosB DNA binding, confirmation, biochemical, fluorescence polarization, TAMRA-CDK5 oligo, cherry-picked samples | shares compounds with dFosB act-1 | purified delta FosB; normalised: neutral wells 0, positive control 100 | activation, % at 24.9 µM | 2,400 tested, under 10 active | AID 588690, 2011;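 active means highest replicate activation at or above 34% and every replicate reaching that threshold; inconclusive means meets only one of the two criteria; inactive means meets neither criterion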;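 further: higher polarization means more probe DNA bound by delta FosB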
* hit, by the source's call. Most compounds without a hit are left out; they make up all but 1.7% or so of the library.

Screening COCCN(C[C@H]1[C@H](c2ccccc2)[C@@H](CO)N1C(=O)C1CC1)C(C)=O returned UUG fidelity -2.7.
Cc1ccc(C)c(-n2nnnc2SCC(=O)c2ccc3c(c2)NC(=O)CO3)c1 was read as Dyrk1A ADPGlo -6.6, CDK5 inh -0.2, CAL PDZ FP-1 -2.0, CAL PDZ FP-2 -4.9, UUG fidelity -18.9, dFosB act-1 67.9* and dFosB act-2 0.7.
Screening O=C(O)C1=C[C@@H](c2ccc3c(c2)Cc2ccccc2-3)C[C@@H](OCc2ccc(CO)cc2)O1 returned UUG fidelity -4.0.
Cc1nn(Cc2ccccc2)c(C)c1NC(=O)CSc1nc(C2CC2)nc2c1cnn2-c1ccccc1 was read as Dyrk1A ADPGlo -3.5, CDK5 inh 0.5, CAL PDZ FP-1 -1.5, CAL PDZ FP-2 -2.5, UUG fidelity -11.4 and dFosB act-1 1.5.
`Cc1cc(NC(=O)CSc2nc(CCC3CCCC3)nc3ccccc23)no1` gave Dyrk1A ADPGlo -5.5, CDK5 inh 0.7, CAL PDZ FP-1 -1.9, CAL PDZ FP-2 -3.3, UUG fidelity -2.9, dFosB act-1 47.4* and dFosB act-2 -4.5.
O=C(CSc1nc(C2CC2)nc2c1cnn2-c1ccccc1)Nc1c[nH]c(=O)[nH]c1=O was read as Dyrk1A ADPGlo -2.3, CDK5 inh 2.9, CAL PDZ FP-1 4.2, CAL PDZ FP-2 -0.6, UUG fidelity -6.4, dFosB act-1 127.4* and dFosB act-2 2.7.
Screening Cc1cccc(C)c1NC(=O)CSc1nc(C2CC2)nc2ccccc12 returned Dyrk1A ADPGlo -8.2, CDK5 inh -2.1, CAL PDZ FP-2 -0.2, UUG fidelity 3.9, dFosB act-1 20.3* and dFosB act-2 5.4.
Screening CCCc1nc(SCC(=O)Nc2cc(C)on2)c2ccccc2n1 returned Dyrk1A ADPGlo -1.8, CDK5 inh 0.3, CAL PDZ FP-1 4.8, CAL PDZ FP-2 -0.7, UUG fidelity -11.8 and dFosB act-1 0.1.
Cc1ccc2c(c1)CC(C)N2S(=O)(=O)c1nnc(NC(=O)CC(C)C)s1 (configuration not stated) was read as Dyrk1A ADPGlo -2.5, CDK5 inh -1.3, CAL PDZ FP-1 1.4, CAL PDZ FP-2 -1.9, UUG fidelity -13.1, dFosB act-1 26.7* and dFosB act-2 1.2.
Screening CCC(CC)C(=O)Nc1nnc(S(=O)(=O)N2c3ccccc3CC2C)s1 (configuration not stated) returned Dyrk1A ADPGlo 0.9, CDK5 inh -2.2, CAL PDZ FP-2 -0.7, UUG fidelity -15.7 and dFosB act-1 -0.3.
For Cc1noc(C)c1NC(=O)N[C@H]1CC[C@H](CC(=O)NCCCN(C)C)O[C@@H]1CO the results were UUG fidelity -3.2.
Screening COc1ccc2nc(NC(=O)Cn3cnc4ccccc4c3=O)sc2c1 returned Dyrk1A ADPGlo -1.1, CDK5 inh -0.4, CAL PDZ FP-1 -1.8, CAL PDZ FP-2 1.1, UUG fidelity -12.5, dFosB act-1 30.8* and dFosB act-2 2.4.
For O=C(N[C@@H]1CC[C@@H](CCNC(=O)C2CCCC2)O[C@@H]1CO)c1ccncc1 the results were UUG fidelity -15.4.
Screening CC[C@@H](C)[C@@H]1CN([C@@H](C)CN2CCC[C@H]2CN2C(N)=NC[C@@H]2Cc2ccccc2)C(=N)N1CCCC1CCCC1 returned Dyrk1A ADPGlo 7.1, CDK5 inh 3.0, CAL PDZ FP-1 -1.9, CAL PDZ FP-2 -3.2, UUG fidelity -3.3 and dFosB act-1 9.0.
For CC[C@@H](C)[C@@H]1CN([C@@H](C)CN2CCC[C@H]2CN2C(N)=NC[C@@H]2Cc2ccccc2)C(=N)N1CCc1ccc(Cl)c(Cl)c1 the results were Dyrk1A ADPGlo 11.0, CDK5 inh 1.3, CAL PDZ FP-1 -2.4, CAL PDZ FP-2 -2.5, UUG fidelity -13.1, dFosB act-1 22.8* and dFosB act-2 0.8.
C[C@H]1CN([C@@H](C)CO)C(=O)c2cc(C#CCN(C)C)cnc2O[C@@H]1CN(C)C(=O)CN1CCOCC1 was read as UUG fidelity -4.7.
`C#CCOCCOCCOCCNc1nc(N2CCN(C(=O)[C@H](CCCCN)n3cc([C@@H](N)C(C)CC)nn3)CC2)nc(N2CCN(C(=O)[C@H](CCCCN)n3cc([C@@H](N)CC(C)C)nn3)CC2)n1` (some centres not stated) gave Dyrk1A ADPGlo 3.0, CDK5 inh 5.6, CAL PDZ FP-1 -6.7, CAL PDZ FP-2 -6.5, UUG fidelity 0.4, dFosB act-1 27.9* and dFosB act-2 inconclusive.
Screening C#CCOCCOCCOCCNc1nc(N2CCN(C(=O)C([C@@H](C)O)n3cc([C@@H](N)CCCCN)nn3)CC2)nc(N2CCN(C(=O)[C@H](CO)n3cc([C@@H](N)C(C)C)nn3)CC2)n1 (some centres not stated) returned Dyrk1A ADPGlo 9.1, CDK5 inh 1.7, CAL PDZ FP-1 0.2, CAL PDZ FP-2 0.4, UUG fidelity 21.2, dFosB act-1 31.2* and dFosB act-2 1.4.
C#CCOCCOCCOCCNc1nc(N2CCN(C(=O)[C@H](Cc3ccc(O)cc3)n3cc([C@@H](N)C(C)CC)nn3)CC2)nc(N2CCN(C(=O)[C@H](Cc3cc4ccccc4[nH]3)n3cc([C@@H](N)C(C)CC)nn3)CC2)n1 (some centres not stated) was read as Dyrk1A ADPGlo 22.0, CDK5 inh 2.9, CAL PDZ FP-1 -4.6, CAL PDZ FP-2 0.4, UUG fidelity 1.2, dFosB act-1 39.6* and dFosB act-2 -6.6.
C#CCOCCOCCOCCNc1nc(N2CCN(C(=O)[C@H](CCCN=C(N)N)n3cc(C(N)[C@H](C)CC)nn3)CC2)nc(N2CCN(C(=O)[C@H](CCCN=C(N)N)n3cc(C(N)[C@@H](C)CC)nn3)CC2)n1 (some centres not stated) was read as Dyrk1A ADPGlo 3.4, CDK5 inh 2.3, CAL PDZ FP-1 1.5, CAL PDZ FP-2 0.0, UUG fidelity 48.4, dFosB act-1 21.5* and dFosB act-2 -4.7.

Random excerpt: 2 entries already listed.
C[C@H]1CN([C@@H](C)CO)C(=O)c2cc(C#CCN(C)C)cnc2O[C@@H]1CN(C)C(=O)CN1CCOCC1 was read as UUG fidelity -4.7.
Screening COc1ccc2nc(NC(=O)Cn3cnc4ccccc4c3=O)sc2c1 returned Dyrk1A ADPGlo -1.1, CDK5 inh -0.4, CAL PDZ FP-1 -1.8, CAL PDZ FP-2 1.1, UUG fidelity -12.5, dFosB act-1 30.8* and dFosB act-2 2.4.

Bioassay records: PubChem BioAssay, Broad Institute
